According to US11400136B2, “Methods and compositions for treating a microbial infection” (priority 2017, dated 2022):
“Also recorded” adds a separate entry of the source.

What was measured:
S. pyogenes M1 [1] = type: cell-based, mouse; details: CGRP added, no neurons
myeloperoxidase (MPO) = assay: Neutrophil myeloperoxidase activity (MPO) assay; type: cell-based, mouse; details: in presence of S. pyogenes; 30 min; dose-dependent
Protocol: Neutrophil myeloperoxidase activity (MPO) assay. Mouse neutrophils were isolated from mouse bone marrow using EasySep mouse neutrophil enrichment kit and EasySep Magnet according to manufacturer's instructions (StemCell). These neutrophils (5×10^5 cells per well) were then treated with CGRP (0.01-1 GenScript) or vehicle (PBS), immediately prior to mixture with S. pyogenes (5×10^3 cfu) M1 wt strain or vehicle (PBS) in 200 μL of neurobasal-A medium containing 10% of fresh mouse serum. Serum was obtained after coagulation of whole mouse blood. Plates were incubated for 30 min at 37° C. with gently shaking (150 rpm), and supernatant collected for MPO activity measurements. Supernatants (50 μL) were added to 200 μL, of 50 mM phosphate buffer solution (pH 6.0) containing 0.167 mg/mL of peroxidase substrate o-dianisidine dihydrochloride (Santa Cruz Biotech) and 0.05% hydrogen peroxide (Santa Cruz Biotech) and incubated for 30 min at room temperature. MPO activity was determined spectrophotometrically by measuring the increase in absorbance at 450 nm.

S. aureus = assay: Neutrophil intracellular killing of S. aureus; type: cell-based, mouse; details: CGRP 0-1000 nM; 2 h
S. pyogenes M1 [2] = assay: Lancefield assay (human whole blood killing); type: cell-based; details: CGRP 10 or 100 nM; 3 h
lung cells = assay: Cytokine production by whole lung cell cultures infected with S. aureus; type: cell-based, mouse; details: CGRP 100 nM; S. aureus MOI 2

| Substance | mouse neutrophil killing of S. pyogenes (multiplication factor) (S. pyogenes M1 [1]) | MPO activity in neutrophil supernatants (myeloperoxidase (MPO)) | neutrophil killing of S. aureus (S. aureus) | killing of S. pyogenes by human whole blood (multiplication factor) (S. pyogenes M1 [2]) | CXCL1 production (lung cells) | IL-6 production (lung cells) | TNF-α production (lung cells) |
| --- | --- | --- | --- | --- | --- | --- | --- |
| CGRP (ACDTATCVTHRLAGLLSRSGGVVKNNFVPTNVGSKAF; Calcitonin gene-related peptide 1; UniProt P06881 83-119, looked up) | inhibits killing of bacteria; also recorded: significantly enhanced the growth of bacteria | decreased; also recorded: inhibited the activity of the bactericidal enzyme myeloperoxidase (MPO) | inhibition of killing; also recorded: decreases S. aureus clearance; also recorded: inhibited intracellular killing of S. aureus | inhibits killing of the bacteria; also recorded: significantly enhanced the growth of bacteria | significantly reduces expression of both cytokines; also recorded: inhibited; also recorded: suppressed CXCL1 | but not IL-6 | significantly reduces expression of both cytokines; also recorded: inhibited |
| human CGRP (ACDTATCVTHRLAGLLSRSGGVVKNNFVPTNVGSKAF; Calcitonin gene-related peptide 1; UniProt P06881 83-119, looked up) |  |  |  | inhibited the killing of S. pyogenes by human whole blood |  |  |  |
